Source: patent publication US20150258192A1, “COMPOSITIONS AND METHODS FOR PREVENTING OR TREATING CHRONIC LUNG ALLOGRAFT DYSFUNCTION (CLAD) AND IDIOPATHIC PULMONARY FIBROSIS (IPF)” (priority 2014, published 2015)

Chains of the proteins cited; added tags and fusions are not shown. Lines headed by an entry give the natural chain unless they say otherwise; changes in a name come on top. Residues count along the entry.
UniProt Q06187, whole entry R28H: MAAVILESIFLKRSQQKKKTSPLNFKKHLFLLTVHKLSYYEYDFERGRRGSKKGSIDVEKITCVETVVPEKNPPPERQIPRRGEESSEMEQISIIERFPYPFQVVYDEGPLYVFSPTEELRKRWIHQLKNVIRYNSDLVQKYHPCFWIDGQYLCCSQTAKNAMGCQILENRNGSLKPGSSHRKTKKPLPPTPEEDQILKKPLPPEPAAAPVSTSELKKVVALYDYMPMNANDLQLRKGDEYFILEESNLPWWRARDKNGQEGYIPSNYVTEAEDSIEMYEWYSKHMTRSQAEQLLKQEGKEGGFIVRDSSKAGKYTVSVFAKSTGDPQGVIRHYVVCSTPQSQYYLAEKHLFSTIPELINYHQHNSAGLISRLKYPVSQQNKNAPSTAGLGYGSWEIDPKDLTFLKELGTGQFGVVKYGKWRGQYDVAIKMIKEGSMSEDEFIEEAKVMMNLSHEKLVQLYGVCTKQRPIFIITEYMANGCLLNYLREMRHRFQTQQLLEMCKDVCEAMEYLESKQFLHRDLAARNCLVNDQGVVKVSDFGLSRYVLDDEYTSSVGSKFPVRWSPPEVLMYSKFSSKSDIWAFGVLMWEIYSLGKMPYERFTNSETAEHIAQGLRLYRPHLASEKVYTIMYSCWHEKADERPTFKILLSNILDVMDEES
UniProt P53355: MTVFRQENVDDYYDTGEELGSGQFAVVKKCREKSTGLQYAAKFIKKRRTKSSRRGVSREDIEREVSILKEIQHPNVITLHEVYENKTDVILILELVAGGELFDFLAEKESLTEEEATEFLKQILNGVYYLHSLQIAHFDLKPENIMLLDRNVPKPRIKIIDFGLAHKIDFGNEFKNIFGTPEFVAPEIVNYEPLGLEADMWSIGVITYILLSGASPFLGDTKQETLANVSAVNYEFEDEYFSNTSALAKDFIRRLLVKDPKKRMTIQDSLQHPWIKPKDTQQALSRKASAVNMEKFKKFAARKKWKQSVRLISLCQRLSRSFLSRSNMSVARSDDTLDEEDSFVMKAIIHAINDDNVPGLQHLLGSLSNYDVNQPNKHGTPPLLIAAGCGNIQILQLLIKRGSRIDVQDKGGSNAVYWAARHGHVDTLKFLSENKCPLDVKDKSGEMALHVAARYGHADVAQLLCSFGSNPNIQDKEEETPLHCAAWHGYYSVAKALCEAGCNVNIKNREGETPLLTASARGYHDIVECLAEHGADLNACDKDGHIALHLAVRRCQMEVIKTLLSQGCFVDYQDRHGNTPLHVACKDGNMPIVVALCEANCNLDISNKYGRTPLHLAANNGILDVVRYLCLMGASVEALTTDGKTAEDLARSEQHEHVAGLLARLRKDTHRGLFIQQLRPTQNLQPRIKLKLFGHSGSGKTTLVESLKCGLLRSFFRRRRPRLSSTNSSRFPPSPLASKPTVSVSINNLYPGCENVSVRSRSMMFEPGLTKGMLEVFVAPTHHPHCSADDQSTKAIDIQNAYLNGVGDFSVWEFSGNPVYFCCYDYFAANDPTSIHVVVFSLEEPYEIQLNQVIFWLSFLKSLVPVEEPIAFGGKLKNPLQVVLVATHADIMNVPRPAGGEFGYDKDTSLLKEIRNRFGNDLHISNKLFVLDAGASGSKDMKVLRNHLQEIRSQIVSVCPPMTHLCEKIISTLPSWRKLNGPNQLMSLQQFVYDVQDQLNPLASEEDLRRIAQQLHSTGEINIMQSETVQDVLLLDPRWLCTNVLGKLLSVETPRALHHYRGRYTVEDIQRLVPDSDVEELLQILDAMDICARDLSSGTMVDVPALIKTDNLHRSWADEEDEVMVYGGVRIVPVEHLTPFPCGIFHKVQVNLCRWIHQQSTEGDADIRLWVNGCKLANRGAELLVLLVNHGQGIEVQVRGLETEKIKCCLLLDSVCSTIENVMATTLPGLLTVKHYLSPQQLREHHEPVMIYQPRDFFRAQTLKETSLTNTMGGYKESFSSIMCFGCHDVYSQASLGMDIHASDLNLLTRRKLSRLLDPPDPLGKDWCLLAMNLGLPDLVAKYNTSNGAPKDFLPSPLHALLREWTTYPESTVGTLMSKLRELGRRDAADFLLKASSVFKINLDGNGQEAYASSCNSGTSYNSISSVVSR
UniProt P53779: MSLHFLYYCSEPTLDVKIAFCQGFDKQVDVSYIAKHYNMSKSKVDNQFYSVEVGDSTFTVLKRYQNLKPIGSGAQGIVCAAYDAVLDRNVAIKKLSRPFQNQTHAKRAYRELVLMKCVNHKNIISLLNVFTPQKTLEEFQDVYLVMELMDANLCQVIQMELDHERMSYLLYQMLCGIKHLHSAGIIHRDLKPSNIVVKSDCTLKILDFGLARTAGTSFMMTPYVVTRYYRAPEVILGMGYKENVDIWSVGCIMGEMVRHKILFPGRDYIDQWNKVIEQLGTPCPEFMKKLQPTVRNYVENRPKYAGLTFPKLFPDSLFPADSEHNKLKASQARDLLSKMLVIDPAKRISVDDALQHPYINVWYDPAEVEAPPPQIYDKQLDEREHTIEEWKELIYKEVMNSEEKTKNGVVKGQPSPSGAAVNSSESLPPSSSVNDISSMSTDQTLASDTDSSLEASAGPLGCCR
UniProt Q04912, 25-1400: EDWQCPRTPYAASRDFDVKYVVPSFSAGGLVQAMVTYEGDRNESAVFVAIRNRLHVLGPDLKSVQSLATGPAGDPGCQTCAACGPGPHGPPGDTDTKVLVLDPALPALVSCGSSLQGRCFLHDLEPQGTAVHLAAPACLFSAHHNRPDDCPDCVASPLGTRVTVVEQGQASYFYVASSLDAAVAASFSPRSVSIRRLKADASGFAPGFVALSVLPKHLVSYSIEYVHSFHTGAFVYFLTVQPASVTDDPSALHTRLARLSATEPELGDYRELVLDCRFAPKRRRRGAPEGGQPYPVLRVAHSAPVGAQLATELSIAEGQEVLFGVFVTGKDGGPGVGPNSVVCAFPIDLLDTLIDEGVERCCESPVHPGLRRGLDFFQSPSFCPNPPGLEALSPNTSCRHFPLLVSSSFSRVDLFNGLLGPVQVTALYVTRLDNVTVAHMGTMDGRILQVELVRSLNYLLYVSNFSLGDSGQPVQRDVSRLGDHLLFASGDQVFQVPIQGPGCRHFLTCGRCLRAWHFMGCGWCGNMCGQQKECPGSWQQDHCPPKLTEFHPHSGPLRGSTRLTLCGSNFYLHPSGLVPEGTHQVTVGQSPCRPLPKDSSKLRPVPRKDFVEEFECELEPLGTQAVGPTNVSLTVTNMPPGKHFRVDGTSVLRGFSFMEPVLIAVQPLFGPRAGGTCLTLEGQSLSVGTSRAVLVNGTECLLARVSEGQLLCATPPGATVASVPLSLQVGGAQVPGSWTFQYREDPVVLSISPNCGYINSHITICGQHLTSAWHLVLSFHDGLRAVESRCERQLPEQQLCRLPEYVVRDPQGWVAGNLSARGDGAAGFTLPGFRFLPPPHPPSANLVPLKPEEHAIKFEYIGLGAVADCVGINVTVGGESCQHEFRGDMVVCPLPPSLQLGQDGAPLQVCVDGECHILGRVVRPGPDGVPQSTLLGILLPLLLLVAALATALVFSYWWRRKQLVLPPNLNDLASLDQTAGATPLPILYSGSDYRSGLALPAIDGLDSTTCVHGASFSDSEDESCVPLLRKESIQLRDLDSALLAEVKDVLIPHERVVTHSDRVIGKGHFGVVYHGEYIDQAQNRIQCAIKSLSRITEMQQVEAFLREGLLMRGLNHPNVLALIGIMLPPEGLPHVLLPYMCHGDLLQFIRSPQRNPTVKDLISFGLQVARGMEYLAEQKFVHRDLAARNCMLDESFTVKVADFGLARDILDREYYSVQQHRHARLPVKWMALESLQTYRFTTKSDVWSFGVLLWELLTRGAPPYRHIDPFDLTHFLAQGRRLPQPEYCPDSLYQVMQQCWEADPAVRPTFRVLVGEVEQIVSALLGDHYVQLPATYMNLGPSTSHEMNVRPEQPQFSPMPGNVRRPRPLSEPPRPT
UniProt P06239: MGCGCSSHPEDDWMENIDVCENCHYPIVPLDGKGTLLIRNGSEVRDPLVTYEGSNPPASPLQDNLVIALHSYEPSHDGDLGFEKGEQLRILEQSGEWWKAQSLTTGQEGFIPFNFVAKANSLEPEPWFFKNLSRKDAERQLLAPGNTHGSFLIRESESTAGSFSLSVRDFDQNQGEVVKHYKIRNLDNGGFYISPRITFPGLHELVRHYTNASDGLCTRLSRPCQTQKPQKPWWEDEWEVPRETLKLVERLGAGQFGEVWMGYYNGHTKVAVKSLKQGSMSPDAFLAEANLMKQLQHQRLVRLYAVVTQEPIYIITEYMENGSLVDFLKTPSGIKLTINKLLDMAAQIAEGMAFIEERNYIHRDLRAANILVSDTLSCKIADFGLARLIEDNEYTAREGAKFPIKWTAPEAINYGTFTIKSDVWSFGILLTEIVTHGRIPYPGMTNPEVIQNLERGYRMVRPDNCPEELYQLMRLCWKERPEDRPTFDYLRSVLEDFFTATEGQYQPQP
UniProt Q8WTQ7: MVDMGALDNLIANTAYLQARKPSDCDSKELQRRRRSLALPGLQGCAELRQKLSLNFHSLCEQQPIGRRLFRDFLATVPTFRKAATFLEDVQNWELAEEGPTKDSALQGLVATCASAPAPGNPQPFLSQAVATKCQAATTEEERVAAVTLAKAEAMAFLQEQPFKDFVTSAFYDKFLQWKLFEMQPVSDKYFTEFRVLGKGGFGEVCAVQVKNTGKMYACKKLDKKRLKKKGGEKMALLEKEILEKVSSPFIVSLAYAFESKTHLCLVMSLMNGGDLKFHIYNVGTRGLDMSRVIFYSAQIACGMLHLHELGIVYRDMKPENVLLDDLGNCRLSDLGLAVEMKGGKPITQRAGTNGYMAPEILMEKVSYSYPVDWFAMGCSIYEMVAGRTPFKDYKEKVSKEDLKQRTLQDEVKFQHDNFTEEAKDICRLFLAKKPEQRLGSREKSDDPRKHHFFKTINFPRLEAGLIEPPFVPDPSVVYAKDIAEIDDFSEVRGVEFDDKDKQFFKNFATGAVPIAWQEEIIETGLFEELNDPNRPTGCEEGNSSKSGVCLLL
UniProt Q8IU85: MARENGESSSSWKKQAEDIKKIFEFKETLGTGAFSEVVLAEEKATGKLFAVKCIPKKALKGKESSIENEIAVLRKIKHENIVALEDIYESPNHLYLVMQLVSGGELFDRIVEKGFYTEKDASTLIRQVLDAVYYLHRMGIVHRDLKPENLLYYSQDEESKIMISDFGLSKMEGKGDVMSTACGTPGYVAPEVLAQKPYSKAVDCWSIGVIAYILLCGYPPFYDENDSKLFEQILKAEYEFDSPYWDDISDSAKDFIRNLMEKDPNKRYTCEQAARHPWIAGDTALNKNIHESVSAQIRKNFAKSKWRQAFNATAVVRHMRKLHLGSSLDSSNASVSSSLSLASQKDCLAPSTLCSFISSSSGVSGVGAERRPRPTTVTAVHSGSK
UniProt P15735: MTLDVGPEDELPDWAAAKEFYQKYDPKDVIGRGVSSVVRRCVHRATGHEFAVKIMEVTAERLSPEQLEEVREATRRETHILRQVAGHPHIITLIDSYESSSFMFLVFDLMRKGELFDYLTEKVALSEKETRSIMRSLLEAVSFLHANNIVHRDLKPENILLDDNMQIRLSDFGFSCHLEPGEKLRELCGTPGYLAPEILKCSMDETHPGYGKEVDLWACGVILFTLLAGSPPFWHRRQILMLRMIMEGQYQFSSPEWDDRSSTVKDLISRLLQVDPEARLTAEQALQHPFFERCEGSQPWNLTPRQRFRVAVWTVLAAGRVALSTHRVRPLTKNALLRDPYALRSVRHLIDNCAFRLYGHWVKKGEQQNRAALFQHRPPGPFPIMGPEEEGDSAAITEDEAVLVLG
UniProt P21802, 22-821: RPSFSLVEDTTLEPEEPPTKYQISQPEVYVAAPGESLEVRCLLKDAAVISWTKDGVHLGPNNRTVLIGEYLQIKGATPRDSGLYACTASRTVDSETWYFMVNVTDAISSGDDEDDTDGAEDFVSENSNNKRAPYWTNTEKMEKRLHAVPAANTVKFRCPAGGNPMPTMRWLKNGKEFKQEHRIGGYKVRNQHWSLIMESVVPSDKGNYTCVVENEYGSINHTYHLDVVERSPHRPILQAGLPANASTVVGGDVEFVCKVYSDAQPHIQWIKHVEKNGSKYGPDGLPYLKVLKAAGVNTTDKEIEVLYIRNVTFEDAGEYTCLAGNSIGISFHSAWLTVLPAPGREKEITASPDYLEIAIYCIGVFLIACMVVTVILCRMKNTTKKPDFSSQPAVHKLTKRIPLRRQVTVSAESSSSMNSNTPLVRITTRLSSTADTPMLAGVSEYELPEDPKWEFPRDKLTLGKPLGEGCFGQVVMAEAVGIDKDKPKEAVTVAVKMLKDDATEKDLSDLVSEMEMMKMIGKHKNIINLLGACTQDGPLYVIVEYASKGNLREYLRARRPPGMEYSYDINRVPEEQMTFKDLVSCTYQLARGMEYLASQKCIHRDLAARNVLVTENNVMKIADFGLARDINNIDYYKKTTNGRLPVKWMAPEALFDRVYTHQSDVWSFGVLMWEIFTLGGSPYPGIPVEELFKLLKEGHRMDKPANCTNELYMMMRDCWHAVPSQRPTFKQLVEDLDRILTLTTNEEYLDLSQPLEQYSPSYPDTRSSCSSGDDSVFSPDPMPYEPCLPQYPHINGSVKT

Experiments:
Assay in all cases: Kinase Profiling Assay
Assay type in all cases: biochemical
Conditions in all cases: peptide 100 μM
MINK(h) = molecular target: T1, MINK(h) (Homo sapiens, UniProt Q8N4C8)
T1 construct: purchased Millipore
Summary of the method: (§1)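 Duplicate wells; [radiolabeled] ATP phosphate onto cationic substrate; filter capture (negatively charged membrane); scintillation count; % of 100% activity control. Selectivity screen of MK2 peptide inhibitors, 266 human kinases.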

PrKX(h) = molecular target: T2, PrKX(h) (Homo sapiens, UniProt P51817)
T2 sequence (P51817 1-358): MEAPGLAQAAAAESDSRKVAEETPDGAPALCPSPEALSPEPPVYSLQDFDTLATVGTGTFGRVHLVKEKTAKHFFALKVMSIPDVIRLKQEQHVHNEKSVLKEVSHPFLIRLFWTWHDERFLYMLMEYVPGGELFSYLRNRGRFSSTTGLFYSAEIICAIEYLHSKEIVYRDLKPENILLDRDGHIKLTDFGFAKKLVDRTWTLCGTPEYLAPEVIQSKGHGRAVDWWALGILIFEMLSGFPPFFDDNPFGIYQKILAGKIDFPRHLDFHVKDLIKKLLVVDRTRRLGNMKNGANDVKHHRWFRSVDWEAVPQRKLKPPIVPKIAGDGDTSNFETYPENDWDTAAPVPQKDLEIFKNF
Summary of the method: as §1

BTK(R28H)(h) = BTK(R28H)(h) (Homo sapiens, UniProt Q06187, R28H)
Summary of the method: as §1

DAPK1(h) = DAPK1(h) (Homo sapiens, UniProt P53355)
Summary of the method: as §1

Flt3(D835Y)(h) = Flt3(D835Y)(h) (Homo sapiens, UniProt P36888, D835Y)
Summary of the method: as §1

MST2(h) = molecular target: T3, MST2(h) (Homo sapiens, UniProt Q13188)
T3 construct: purchased Millipore
T3 sequence (Q13188 1-491): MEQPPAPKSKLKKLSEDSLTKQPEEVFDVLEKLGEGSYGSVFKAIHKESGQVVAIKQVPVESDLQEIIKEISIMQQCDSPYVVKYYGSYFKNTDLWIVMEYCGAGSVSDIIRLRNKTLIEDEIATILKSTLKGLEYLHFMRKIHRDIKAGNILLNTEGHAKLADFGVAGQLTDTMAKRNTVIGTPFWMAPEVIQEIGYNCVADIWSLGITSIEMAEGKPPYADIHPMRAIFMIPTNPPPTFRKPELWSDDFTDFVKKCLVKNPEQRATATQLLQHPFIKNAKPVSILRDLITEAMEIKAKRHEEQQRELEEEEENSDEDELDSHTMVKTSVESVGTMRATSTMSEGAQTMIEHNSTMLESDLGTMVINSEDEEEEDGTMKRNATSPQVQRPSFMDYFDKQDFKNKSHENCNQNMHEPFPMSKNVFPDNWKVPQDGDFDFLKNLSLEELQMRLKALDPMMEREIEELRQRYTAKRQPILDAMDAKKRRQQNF
Summary of the method: as §1

JNK3(h) = molecular target: T4, JNK3(h) (Homo sapiens, UniProt P53779)
T4 construct: purchased Millipore
Summary of the method: as §1

DAPK2(h) = DAPK2(h) (Homo sapiens, UniProt Q9UIK4)
Summary of the method: as §1

Ron(h) = Ron(h) (Homo sapiens, UniProt Q04912)
Summary of the method: as §1

CDK7/cyclinH/MAT1(h) = CDK7/cyclinH/MAT1(h) (Homo sapiens, UniProt P50613)
Summary of the method: as §1

Lck(h) activated = molecular target: T5, Lck(h) activated (Homo sapiens, UniProt P06239)
T5 construct: purchased Millipore
Summary of the method: as §1

GRK7(h) = molecular target: T6, GRK7(h) (Homo sapiens, UniProt Q8WTQ7)
T6 construct: purchased Millipore
Summary of the method: as §1

SAPK2b(h) = molecular target: T7, SAPK2b(h) (Homo sapiens, UniProt Q15759)
T7 construct: purchased Millipore
Summary of the method: as §1

Fer(h) = Fer(h) (Homo sapiens, UniProt P16591)
Summary of the method: as §1

CaMKIδ(h) = CaMKIδ(h) (Homo sapiens, UniProt Q8IU85)
Summary of the method: as §1

PhKγ2(h) = PhKγ2(h) (Homo sapiens, UniProt P15735)
Summary of the method: as §1

EGFR(h) = EGFR(h) (Homo sapiens, UniProt P00533)
Summary of the method: as §1

FGFR2(h) = FGFR2(h) (Homo sapiens, UniProt P21802)
Summary of the method: as §1

Compound | % activity (MINK(h)) | % activity (PrKX(h)) | % activity (BTK(R28H)(h)) | % activity (DAPK1(h)) | % activity (Flt3(D835Y)(h)) | % activity (MST2(h)) | % activity (JNK3(h)) | % activity (DAPK2(h)) | % activity (Ron(h)) | % activity (CDK7/cyclinH/MAT1(h)) | % activity (Lck(h) activated) | % activity (GRK7(h)) | % activity (SAPK2b(h)) | % activity (Fer(h)) | % activity (CaMKIδ(h)) | % activity (PhKγ2(h)) | % activity (EGFR(h)) | % activity (FGFR2(h))
YARAAARQARAKALNRQLGVA (Mammal) [MMI-0200] | 103% | 112% | 104% | 113% | 115% | 104% |  |  |  |  |  |  |  |  |  |  |  | 
CC(C)C[C@H](NC(=O)[C@H](C)NC(=O)[C@H](CCCCN)NC(=O)[C@H](C)NC(=O)[C@H](CCCNC(=N)N)NC(=O)[C@H](C)NC(=O)[C@H](CCC(N)=O)NC(=O)[C@H](CCCNC(=N)N)NC(=O)[C@H](C)NC(=O)[C@H](C)NC(=O)[C@H](C)NC(=O)[C@H](CCCNC(=N)N)NC(=O)[C@H](C)NC(=O)[C@@H](N)Cc1ccc(O)cc1)C(=O)N[C@@H](C)C(=O)N[C@@H](CCCNC(=N)N)C(=O)N[C@@H](CCC(N)=O)C(=O)N[C@@H](CC(C)C)C(=O)NCC(=O)N[C@H](C(=O)N[C@@H](C)C(=O)N[C@@H](C)C(=O)O)C(C)C [MMI-0100] |  |  |  |  |  |  | 104% | 41% | 117% | 89% | 106% | 111% | 99% | 117% | 59% | 62% | 95% | 49%
